Apparent affinities of Ab-14 variants for a coronavirus HR2 peptide

Antigen: PDVDLGDISGINAS, a 14-residue peptide of the SARS-CoV-2 spike HR2 region.

Parent scFv Ab-14: VH joined to VL by a 15-residue (Gly4Ser)3 linker. Changes lie in the light chain CDRs alone.
VH: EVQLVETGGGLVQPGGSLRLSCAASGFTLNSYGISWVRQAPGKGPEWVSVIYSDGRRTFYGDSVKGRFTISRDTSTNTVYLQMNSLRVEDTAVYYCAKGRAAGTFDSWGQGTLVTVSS
VL: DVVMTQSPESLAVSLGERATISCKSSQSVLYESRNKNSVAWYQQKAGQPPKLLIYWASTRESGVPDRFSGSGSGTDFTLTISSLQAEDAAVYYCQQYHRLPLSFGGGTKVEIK

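Phage display of a naive human antibody library on the peptide gave the parent. The variants were designed computationally from a first round of random CDR variants and then made and measured. Group labels follow the data file (Ctrl: baseline library sampled from a position-specific scoring matrix, with some repeated check sequences; En: ensemble of fine-tuned language models; GP: Gaussian process model; HC: hill climbing; Gen: genetic algorithm; Gibbs: Gibbs sampling; a sequence that several methods proposed may carry one label only). In AlphaSeq, yeast of one mating type display the scFv and yeast of the other type display the target. The frequency of each diploid, read from paired DNA barcodes, reflects how well the two displayed proteins bind. Scores were corrected for input abundance and mapped to Kd with protein pairs of known affinity run in the same pool. Mating was done six times.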

Variants are written as CDR1, CDR2 and CDR3 of the light chain (limits as in the source). Parent: KSSQSVLYESRNKNSVA, WASTRES, QQYHRLPLS. This list holds designs with more than six substitutions. Affinities are written as log10 Kd with Kd in nM; a lower number is a better binder. Replicates are averaged; those with no signal do not enter the mean. A pair that was not seen in any replicate is written "nd"; this usually means weak binding, but a binder can also be missed.

For RLENQETEQIQHANSIA, DRDEVDV, QQYAHLPLS [En_Gibbs], the assay gave 1.03 (5 of 6 replicates).
For SLTKLETTGQKKSENIA, DQSMRYE, QQYSRLPLK [En_Gibbs], the assay gave 1.36 (6 of 6 replicates).
For KLTMINGLEKVSKNNVA, EMETRER, QQYNRLPLS [En_Gen], the assay gave 0.34 (6 of 6 replicates).
For QVQAFNEHLKDQTQAMA, EATMRDA, QQYERLPLS [En_Gibbs], the assay gave 0.19 (6 of 6 replicates).
For HMSMLTLQGMRIRNSVA, QMTTREN, QQYDRLPLS [En_Gen], the assay gave 1.25 (6 of 6 replicates).
For TISQMTSLFSQNINNVA, EVSTREN, QQYDRLPLA [En_Gen], the assay gave 0.34 (6 of 6 replicates).
For ILYESAGTLSRNKNSVA, DNSTRES, QQYDRLPLS [En_HC], the assay gave 4.40 (2 of 6 replicates).
For KISGYLNKESKNKNSVA, EMVNRES, QQYDRLPLS [En_HC], the assay gave 1.20 (6 of 6 replicates).
For NIYQAMHTLSQMKDNVA, DVEERGS, QQYFRLPLS [En_Gen], the assay gave 0.56 (6 of 6 replicates).
For KLQQSWEYESRNKNNVA, EGSQREV, QQYHRLPLS [GP_Gibbs], the assay gave -0.19 (6 of 6 replicates).
For KQQQSALGEERNFNSVA, HASTRES, QQYHRLPLS [GP_Gibbs], the assay gave 0.37 (6 of 6 replicates).
For KLTNVTGTEKVLGNNVA, EMETREV, QQYNRLPLS [En_Gen], the assay gave 1.24 (5 of 6 replicates).
For KLSEIAHFESRKKNSVA, ENSTREN, QQYDHLPLS [En_HC], the assay gave 1.50 (5 of 6 replicates).
For KLLQEVTGHSRNRHSVA, HNSTRED, QQYDRLPLS [En_HC], the assay gave 2.57 (6 of 6 replicates).
For MLSQMWAIGLKVSNSVA, QASMRFN, QQYDRLPLI [En_Gen], the assay gave 2.33 (3 of 6 replicates).
For KLSQSDLYEDRNLNNVA, NASQRES, QVYHRLPLS [GP_Gibbs], the assay gave -0.25 (6 of 6 replicates).
For KLYQNVGTMSMNKQSIA, DMERRED, QQYHRLPLS [En_HC], the assay gave 0.28 (6 of 6 replicates).
For KIGSGTNGEKFQSNSVA, QASTREE, QQYHRLPLS [En_HC], the assay gave 0.21 (6 of 6 replicates).
For HMSMLTLMGSRNRNSVA, QMTTREN, QQYDRLPLI [En_Gen], the assay gave 1.29 (6 of 6 replicates).
For KIYQLGLGSQKIMRNIA, QTSIREL, QSYNRLPLS [En_Gibbs], the assay gave 1.12 (6 of 6 replicates).
For ALELEEMQMMKDINSIA, DTEHKTR, QQYFRLPIS [En_Gibbs], the assay gave 0.78 (6 of 6 replicates).
For TLSELMDMTSRNVNSVA, DLTTRGN, QQYHRLPLS [En_HC], the assay gave 0.82 (6 of 6 replicates).
For HFSVETMEFMGKNKNIA, EVSTTML, QQYARLPFM [En_Gibbs], the assay gave 0.74 (6 of 6 replicates).
For KISQVAMTTGKLKNSVA, NAYTRVQ, QQYHRLPLS [En_HC], the assay gave 0.56 (6 of 6 replicates).
For MLLQSTMYGERNRNNVA, HASTRED, QQYHRLPLI [En_HC], the assay gave 1.14 (6 of 6 replicates).
For NISHFMDTTAKHNNNVA, EMEMREK, QQYHHLPLS [En_Gen], the assay gave 0.71 (6 of 6 replicates).
For LISGVWDLGSRNYNSVA, QTSTRES, QQYDRLPLS [En_HC], the assay gave 0.61 (6 of 6 replicates).
For HMYQSGLYESRNQNSVA, SASMRES, QQYHRLPLS [GP_Gibbs], the assay gave 1.46 (4 of 6 replicates).
For KVSEFMRGLMQRKDSIA, DNVTRSN, QQYDRLPLS [En_Gen], the assay gave 1.36 (3 of 6 replicates).
For KIGMTLNTLMHTKNNVA, DLVMREQ, QQYHRLPLS [En_Gen], the assay gave 0.05 (6 of 6 replicates).
For HMSAITLGGMRARNSVA, QMTTREN, QQYDRLPLA [En_Gen], the assay gave 0.51 (6 of 6 replicates).
For KTQQSLLSESNNKNNVA, WASTRES, QRYHRLPLS [Ctrl], the assay gave 1.13 (6 of 6 replicates).
For KSSPSQLYEDRMFNSVA, NASYRES, QQYHRLPLS [GP_Gibbs], the assay gave 0.54 (6 of 6 replicates).
For KLQYLVLYESRMKNSVA, GASTRLQ, QQYHRLPLS [GP_Gibbs], the assay gave nd (0 of 6 replicates).
For KLSQITGHSLMSKNNVA, EMVTREN, QQYDRLPLS [En_Gen], the assay gave 0.90 (6 of 6 replicates).
For KLEDQMQTSFASDNSVA, DTNMGHE, QQYNRLPLV [En_Gibbs], the assay gave 0.79 (6 of 6 replicates).
For HLSLPWQLGHPSTNAVA, NMSVLMT, QQYSRLPLS [En_Gibbs], the assay gave 0.04 (6 of 6 replicates).
For KCDQSQDYESRNKNWVA, NASQRES, QQYHRLPLS [GP_Gibbs], the assay gave 0.71 (6 of 6 replicates).
For MISQVMNTLTRNGNNVA, DLTERTK, QQYFRLPLS [En_Gen], the assay gave 0.46 (6 of 6 replicates).
For KLQNFSQEHNGMWNSIA, DETMKHT, QHYIRLPLV [En_Gibbs], the assay gave 2.38 (6 of 6 replicates).
For KISSLTMYESVNKNNIA, EMSTRPS, QSYHRLPLS [En_HC], the assay gave 0.83 (6 of 6 replicates).
For KLQFSCLYESRNQNSVA, SASYRLS, QQYHRLPLS [GP_Gibbs], the assay gave 1.79 (6 of 6 replicates).
For KLVESELYESRNSNSVA, NASYREE, QQYHRLPLS [GP_Gibbs], the assay gave 0.01 (6 of 6 replicates).

Picked from the list: the 7 lowest averages where every replicate gave a value.

For KLSQSDLYEDRNLNNVA, NASQRES, QVYHRLPLS [GP_Gibbs], the assay gave -0.25 (6 of 6 replicates).
For KLQQSWEYESRNKNNVA, EGSQREV, QQYHRLPLS [GP_Gibbs], the assay gave -0.19 (6 of 6 replicates).
For KLVESELYESRNSNSVA, NASYREE, QQYHRLPLS [GP_Gibbs], the assay gave 0.01 (6 of 6 replicates).
For HLSLPWQLGHPSTNAVA, NMSVLMT, QQYSRLPLS [En_Gibbs], the assay gave 0.04 (6 of 6 replicates).
For KIGMTLNTLMHTKNNVA, DLVMREQ, QQYHRLPLS [En_Gen], the assay gave 0.05 (6 of 6 replicates).
For QVQAFNEHLKDQTQAMA, EATMRDA, QQYERLPLS [En_Gibbs], the assay gave 0.19 (6 of 6 replicates).
For KIGSGTNGEKFQSNSVA, QASTREE, QQYHRLPLS [En_HC], the assay gave 0.21 (6 of 6 replicates).

A sequence measured in both rounds can read differently, since the two assays cover different ranges. In the paper, a design with two or fewer of six values counts as a poor binder. Three control strains display no target. For all light chain designs, 4% of the pairings with them gave a signal, with a median of 2.64 and one signal in twenty below 1.59, so weak values seen in few replicates may be background. Of ten entries with the parent sequence, four were seen in most replicates (averages 0.34 to 2.37), three in one and three in none, so single entries are noisy.

From the AlphaSeq antibody data of Li et al. 2023 (doi:10.1038/s41467-023-39022-2), copy in the FLAb collection.